The entries are a selection whose mix differs from that of the whole data set. Only a part of the results of these assays is listed, not drawn at random. Activity calls are given as the source filed them. The calls are words filed in the database; no cut-off is given here.

Protein sequences, listed by entry. Tags and fused reporters are not part of them.
UniProt P38398, whole entry, looked up: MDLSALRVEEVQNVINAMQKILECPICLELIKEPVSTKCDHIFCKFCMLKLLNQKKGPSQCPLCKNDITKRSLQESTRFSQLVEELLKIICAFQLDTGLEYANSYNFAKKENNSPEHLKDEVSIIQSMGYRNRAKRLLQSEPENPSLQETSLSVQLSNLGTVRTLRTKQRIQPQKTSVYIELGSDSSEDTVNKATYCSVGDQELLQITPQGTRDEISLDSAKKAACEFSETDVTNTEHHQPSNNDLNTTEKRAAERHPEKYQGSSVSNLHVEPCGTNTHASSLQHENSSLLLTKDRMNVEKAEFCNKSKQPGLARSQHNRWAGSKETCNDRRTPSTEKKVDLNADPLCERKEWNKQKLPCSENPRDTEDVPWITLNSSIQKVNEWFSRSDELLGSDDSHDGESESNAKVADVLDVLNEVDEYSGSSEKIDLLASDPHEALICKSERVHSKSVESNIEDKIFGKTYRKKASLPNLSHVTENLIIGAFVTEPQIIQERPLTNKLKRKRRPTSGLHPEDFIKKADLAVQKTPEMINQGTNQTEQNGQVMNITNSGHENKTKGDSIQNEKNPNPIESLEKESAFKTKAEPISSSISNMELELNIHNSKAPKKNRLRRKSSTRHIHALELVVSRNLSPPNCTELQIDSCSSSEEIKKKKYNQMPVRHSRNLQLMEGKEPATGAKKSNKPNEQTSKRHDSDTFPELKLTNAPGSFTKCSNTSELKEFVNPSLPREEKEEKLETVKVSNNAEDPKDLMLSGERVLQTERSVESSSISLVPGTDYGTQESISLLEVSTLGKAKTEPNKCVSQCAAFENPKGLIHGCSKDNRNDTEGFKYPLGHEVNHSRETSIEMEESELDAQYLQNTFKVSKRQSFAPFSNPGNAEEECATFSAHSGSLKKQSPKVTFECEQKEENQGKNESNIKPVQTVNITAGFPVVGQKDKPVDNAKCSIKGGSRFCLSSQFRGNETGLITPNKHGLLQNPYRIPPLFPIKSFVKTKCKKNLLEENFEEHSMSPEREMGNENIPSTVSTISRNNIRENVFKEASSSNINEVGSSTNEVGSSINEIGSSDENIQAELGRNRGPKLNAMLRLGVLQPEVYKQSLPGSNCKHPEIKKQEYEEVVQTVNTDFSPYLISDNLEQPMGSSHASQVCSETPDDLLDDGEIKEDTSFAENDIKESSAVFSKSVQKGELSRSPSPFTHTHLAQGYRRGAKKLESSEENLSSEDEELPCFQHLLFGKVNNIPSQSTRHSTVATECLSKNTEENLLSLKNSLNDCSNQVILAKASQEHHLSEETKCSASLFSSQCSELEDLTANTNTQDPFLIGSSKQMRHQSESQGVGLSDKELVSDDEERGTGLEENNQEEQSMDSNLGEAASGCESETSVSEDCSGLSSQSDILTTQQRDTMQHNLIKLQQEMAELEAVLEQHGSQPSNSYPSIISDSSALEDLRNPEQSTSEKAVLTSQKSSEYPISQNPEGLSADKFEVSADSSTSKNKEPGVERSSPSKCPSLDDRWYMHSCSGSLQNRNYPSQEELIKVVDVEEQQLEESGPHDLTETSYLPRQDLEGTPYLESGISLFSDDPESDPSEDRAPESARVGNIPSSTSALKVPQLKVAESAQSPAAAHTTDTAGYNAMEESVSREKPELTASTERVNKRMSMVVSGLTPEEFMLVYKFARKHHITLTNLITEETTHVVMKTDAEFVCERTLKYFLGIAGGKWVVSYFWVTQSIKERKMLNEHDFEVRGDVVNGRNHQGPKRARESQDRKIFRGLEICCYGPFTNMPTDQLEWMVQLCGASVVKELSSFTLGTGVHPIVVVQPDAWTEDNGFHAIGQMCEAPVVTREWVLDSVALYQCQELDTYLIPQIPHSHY

For the test, the target named is Breast cancer type 1 susceptibility protein (Homo sapiens) (UniProt P38398). As to the kind of experiment: qHTS Assay to Identify Small Molecule Activators of BRCA1 Expression. The class given is functional. For orientation: In qHTS, concentration-response curves come from the screen itself.
On to `N=C(N)c1ccc(OCCCCCOc2ccc(C(=N)N)cc2)cc1`, for which the Potency entry is “inactive”.

Values taken from ChEMBL document CHEMBL1201862, “PubChem BioAssay data set” (2004).
